Experimental findings from patent US20260144890A1, “ANTIBODY DRUG CONJUGATE COMPRISING NMT INHIBITOR CONJUGATED TO AN ANTIBODY” (MyricX Pharma Limited, priority 2024, published 2026) are described below.

Series [1] deals with HER2 positive breast cancer cell line, BT474. As to the kind of experiment: In vitro cytotoxicity, IncuCyte Sytox Green, BT474. Particulars: 50, 3.13 and 0.2 nM, ten days; ADC killing stated at 0.2 nM. It counts as cell-based. The procedure: Cells were plated in 96 well plates at 10% confluency (8000 for BT474). […] Plates were imaged every four hours for ten days in the IncuCyte S3. Images for % phase (confluence) and green (Sytox Green) were collected and analysed using the IncuCyte software 2022A. Data are presented as green area normalised to phase area (μm^2) over time whilst cells are in log phase proliferation.
Trastuzumab was conjugated to NMT inhibitor 1 (ADO Example 8) and tested for its cytotoxic activity against a HER2 positive breast cancer cell line, BT474 in an in vitro assay. Cells were plated in 96 well plates at 10% confluency (8000 for BT474). The following day cells were treated with ADO Example 8 at 50 nM, 3.13 nM, and 0.2 nM and controls in 250 nM Sytox Green containing medium. Plates were imaged every four hours for ten days in the IncuCyte S3. Images for % phase (confluence) and green (Sytox Green) were collected and analysed using the IncuCyte software 2022A. Data are presented as green area normalised to phase area (μm^2) over time whilst cells are in log phase proliferation.

For series [2], the system named is gastric cancer organoid GA0098B. As to the kind of experiment: Gastric cancer organoid viability (CTG 3D), GA0098B. The format is cell-based. The procedure: (§1) Day −1: Patient derived gastric cancer organoids (PDXOs) are sheared to uniform sizes and the required number of organoids are combined 1:1 with 50% Matrigel to produce the right size of the organoids to perform the screen.
(§2) Day 0: Organoid seeding • 1. Collect organoids from each well by adding 20 μl 100× Dispase solution to each well from a 6-well plate, which contains 2 ml of organoid medium. • 2. Put the plates back in the incubator, 37° C. for 30 min. • 3. Collect organoids from all wells and pipet through a pre-wet 100 μm filter into a 50 ml plastic tube. • 4. Once all wells have been filtered over 100 μm filters, filter the flow though over a pre-wet 20 μm filter. • 5. […]
(§3) • 10. Place screening plates back into the incubator before adding compounds and day 0 reading. […] One is for day 0 reading (TO) and the other for reading at the end point.
(§4) Day 0: Compounds treatment and Day 0 baseline CTG (cell titre glo) reading • 11. […] For day 0 reading plate, add 40 μL of CTG 3D per well and read luminescent signal on Envision plate reader.
(§5) Day 6: Endpoint CTG reading. • 1. Read assay plates for luminescent CTG signal at the end of the assays: add 40 μL of CTG 3D per well by Multidrop dispenser, mix the contents for 5 min on the plate shaker, and incubate the plates for 30 min at room temperature in dark. Read luminescent signal on Envision plate reader. […]

Series [3] deals with gastric cancer organoid GA6894B. Description: Gastric cancer organoid viability (CTG 3D), GA6894B. The format is cell-based. On the procedure: as §1, §2, §3, §4, §5
Series [4] relates to gastric cancer organoid GA3055B. Description: Gastric cancer organoid viability (CTG 3D), GA3055B. The format is cell-based. On the procedure:
as §1, §2, §3, §4, §5

For series [5], the system named is gastric cancer organoid GA0087B. Description: Gastric cancer organoid viability (CTG 3D), GA0087B. The format is cell-based. On the procedure: as §1, §2, §3, §4, §5
Series [6] relates to gastric cancer organoid GA6866B. Description: Gastric cancer organoid viability (CTG 3D), GA6866B. The format is cell-based. The procedure: as §1, §2, §3, §4, §5
The test system of series [7] is gastric cancer organoid GA0060B. As to the kind of experiment: Gastric cancer organoid viability (CTG 3D), GA0060B. It counts as cell-based. On the procedure: as §1, §2, §3, §4, §5
Series [8] deals with gastric cancer organoid GA0119B. Description: Gastric cancer organoid viability (CTG 3D), GA0119B. The format is cell-based. The procedure:
as §1, §2, §3, §4, §5

The subject of series [9] is gastric cancer organoid GA6833B. As to the kind of experiment: Gastric cancer organoid viability (CTG 3D), GA6833B. The format is cell-based. The procedure: as §1, §2, §3, §4, §5
In series [10] the test system is gastric cancer organoid GA3102B. Description: Gastric cancer organoid viability (CTG 3D), GA3102B. The format is cell-based. The procedure: as §1, §2, §3, §4, §5
For series [11], the system named is gastric cancer organoid GA6891B. As to the kind of experiment: Gastric cancer organoid viability (CTG 3D), GA6891B. The format is cell-based. The procedure:
as §1, §2, §3, §4, §5

In series [12] the test system is gastric cancer organoid GA0429B. As to the kind of experiment: Gastric cancer organoid viability (CTG 3D), GA0429B. The format is cell-based. On the procedure:
as §1, §2, §3, §4, §5

Series [13] has as its system gastric cancer organoid GA0091B. As to the kind of experiment: Gastric cancer organoid viability (CTG 3D), GA0091B. It counts as cell-based. On the procedure: as §1, §2, §3, §4, §5
The test system of series [14] is gastric cancer organoid GA6877B. Description: Gastric cancer organoid viability (CTG 3D), GA6877B. The format is cell-based. The procedure:
as §1, §2, §3, §4, §5

Series [15] relates to gastric cancer organoid GA6815B. As to the kind of experiment: Gastric cancer organoid viability (CTG 3D), GA6815B. The format is cell-based. On the procedure: as §1, §2, §3, §4, §5
In series [16] the test system is gastric cancer organoid GA2109B. As to the kind of experiment: Gastric cancer organoid viability (CTG 3D), GA2109B. The format is cell-based. On the procedure: as §1, §2, §3, §4, §5
The subject of series [17] is JIMT-1 human breast xenograft. As to the kind of experiment: JIMT1 breast cancer xenograft model (Balb/c nude mice, ADC Example 1). It counts as in vivo, mouse. On the procedure:
In this study, 72 mice were inoculated subcutaneously in the right front flank region with 1×10^7 viable JIMT-1 tumour cells resuspended in Matrigel (1:1) on Study Day −15. When tumours reached a tumour volume of approximately 120-150 mm^3, 60 mice with the most similarly sized tumours were randomly assigned to 6 treatment groups on Study Day 0. […] The study was terminated on Study Day 58. The dosing regimen was as follows:
The body weight of all mice in each group was measured and recorded three times weekly throughout the duration of the study. Moreover, the tumour volume was measured (mm^3) and recorded using digital calipers three times weekly throughout the duration of the study. In particular, the length, width, and depth of the tumour were each measured and used to calculate tumour volume (mm^3). The results are shown in FIG. 58, FIG. 59, and FIG. 60.

Series [18] deals with gastric cancer organoid GA2434B. As to the kind of experiment: Gastric cancer organoid viability (CTG 3D), GA2434B. It counts as cell-based. The procedure:
as §1, §2, §3, §4, §5

The subject of series [19] is BT474 breast cancer cells. Description: Orthotopic breast cancer xenograft model (BT474). The format is in vivo, mouse. Particulars: trastuzumab and ADC 2.5 and 5 mg/kg; NMT inhibitor 1 2 mg/kg. The procedure:
NOD/SCID mice were implanted with estrogen pellets (17β-estradiol, 60 day release, 0.36 mg) subcutaneously in the right flank one day before the tumour inoculation. On day −8 each mouse was then inoculated in the right mammary fat pad with 1×10^7 viable BT474 breast cancer cells resuspended in 0.2 mL of Phosphate Buffered Saline mixed with matrigel (1:1). Mice were assigned to treatment groups when tumour volumes averaged 149.78 mm^3 on study day 0. […] The study was terminated on Study Day 35. […] Each group was comprised of 10 mice. Tumour volumes in mice were measured three times per week and tumour volume was calculated using the formula 0.5 (L×W^2). The mean tumour volumes (+SEM) for each study group at each measurement are shown in FIG. 1 and FIG. 2 plotted as Last Observation Carried Forward. Statistical analyses were carried out on tumour readings for Groups 1, 2, 3, 4 and 5 up to Study Day 23 (after this point >50% of the animals within one of the study groups were lost; Group 2) using two-way ANOVA, or a Mixed-Effects model was fitted when values were missing from groups (PRISM GraphPad Software Inc.). Statistical analysis of Group 6 was conducted until day 13 (at this point the study was terminated due to the significant loss of observed body weight). […]
During the study, body weights were measured three times weekly for all animals. […]

With trastuzumab deruxtecan, the “cell killing of BT474 cells” value in series [1] is recorded as “effectively killed BT474 cells but was less efficacious than ADC Example 8”. In addition, the Max_Inhibition in [2] is 8.49%; in [3], 44.79%; in [4] it was 32.59%; in [5], 42.94%; in [6] it was 85.3%; in [7] it was 36.69%. Also, the Max_Inhibition is reported as 26.83% in series [8]; 30.23% in [9]; 90.24% in series [10]; −4.87% in series [11]; 41.08% in series [12]; −4.07% in series [13]. Further, the Max_Inhibition in series [14] is on record as 80.47%; in series [15], 63.4%; in series [16] it was 18.41%; in [18] it was 21.96%. The “tumour volume compared to vehicle alone” value in series [17] (5 mg/kg IV on Study Days 0, 7, 28 and 35, agent alone) is “significantly decreased tumour volume”. Moreover, in series [17] (5 mg/kg IV, agent alone), the “mice that completely responded (of 10)” value was “no mice”.

Consider “trastuzumab: humanized anti-HER2 monoclonal antibody”, for which the Max_Inhibition amounted to 15.3% in [2]; 28.1% in series [3]; 43.3% in series [4]; 35.31% in series [5]; 62.62% in series [6]; 34.19% in [7]. The Max_Inhibition is 12.83% in [8]; 32.44% in series [9]; 13.75% in series [10]; −1.19% in series [11]; 7.66% in [12]; 17.54% in series [13]. Also, the Max_Inhibition in series [14] stood at 40.47%; in [15], 64.47%; in series [16], 34.63%; in series [18], 27.95%. Moreover, in [19], the “body weights of mice” value is given as “did not differ significantly from the vehicle control”.
